Here are results for one molecule from patent US4812469A, “Acetamides derived from 2,3-dihydro-3-phenyl-2-benzofuranone” (Adir Et Cie, priority 1987, dated 1989).

The subject of the experiment is tissue energy-rich compounds (ATP, ADP, AMP) of the brain. Description: Acute normobaric hypoxia in rats, brain tissue energy-rich compounds (ATP level and energy content). To be noted: 300 mg/kg I.P., 3% oxygen for 2 minutes. The class given is in vivo, rats (male Fischer 344). As for the experimental part:
The compounds of the present invention were tested in respect of their capacity to prolong the survival of cerebral tissue during acute hypoxia in mice, or to maintain the level of tissue energy-rich compounds in rats subjected to a fall in the oxygen supply [Pharmacology of Cerebral Ischemia, ([…]) p. 334-339 Elsevier Science Publishers B.V., J. Krieglstein ed.]. […] Forsch. Drug Res. (1986), 36 II No. 9, p. 1314-1320].
Whereas the control rats breathe a gaseous mixture containing 21% of oxygen and 79% of nitrogen, the rats subjected to hypoxia breath a mixture of 3% oxygen and 97% nitrogen for 2 minutes.
At the end of the hypoxic period, the animals are rapidly sacrificed by total immersion in liquid nitrogen. The frozen brain is removed and the energy-rich compounds (ATP, ADP, AMP) are extracted and assayed by the luciferin luminescence method.
The tissue energy content (EC) is calculated according to ATKINSON's formula: [formula]

As for `NC(=O)CN1CCCC1=O` [Piracetam, piracetam], the “% inhibition of the effects of hypoxia: ATP” value is reported as 3.9% and the “% inhibition of the effects of hypoxia: EC (energy content)” value came out at 1.6%.
